IC50 data for one molecule are collected here from ChEMBL document CHEMBL2150997, “Profiling of a prescription drug library for potential renal drug-drug interactions mediated by the organic cation transporter 2” (J Med Chem, 2011).

For the assay, the target named is T1, Multidrug and toxin extrusion protein 2 (Homo sapiens, UniProt Q86VL8).
T1 sequence (Q86VL8 whole entry): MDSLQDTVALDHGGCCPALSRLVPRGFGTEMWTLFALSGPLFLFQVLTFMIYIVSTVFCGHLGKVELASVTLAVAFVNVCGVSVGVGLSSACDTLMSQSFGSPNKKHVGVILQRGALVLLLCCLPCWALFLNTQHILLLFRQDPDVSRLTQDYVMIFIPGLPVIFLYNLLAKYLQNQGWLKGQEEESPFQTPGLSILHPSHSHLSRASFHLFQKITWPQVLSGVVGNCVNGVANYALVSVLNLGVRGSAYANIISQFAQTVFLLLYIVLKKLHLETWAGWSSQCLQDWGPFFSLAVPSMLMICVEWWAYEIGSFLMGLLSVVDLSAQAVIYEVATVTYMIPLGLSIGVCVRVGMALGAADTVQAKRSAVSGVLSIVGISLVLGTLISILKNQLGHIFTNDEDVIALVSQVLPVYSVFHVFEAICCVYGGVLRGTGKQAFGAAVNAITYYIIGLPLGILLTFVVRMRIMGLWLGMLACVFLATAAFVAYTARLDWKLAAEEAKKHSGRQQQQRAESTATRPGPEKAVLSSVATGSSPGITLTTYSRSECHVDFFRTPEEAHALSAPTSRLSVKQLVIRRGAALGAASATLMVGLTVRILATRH

The term IC50 denotes the concentration at which inhibition is half-maximal. The low end stands for greater potency in that assay, the high end for weaker potency in that assay. For `Cc1nccn1CC1CCc2c(c3ccccc3n2C)C1=O` (stereo unspecified) [ONDANSETRON], the half-maximal inhibitory concentration (IC50) was determined as 6.9 µM.
